In patent US20150079088A1:

Target: EGFR on EGFR-expressing cells (SW480 and other EGFR-expressing cell lines) (UniProt P00533)
Experiment: cell-based or functional assay

reduction in maximal CD69 induction with EGFR-negative U266 cells relative to EGFR-positive cells: 75%
Substance: multispecific antibody C225v5-OKT3m-H-C (bispecific antibody)
